“And” between values parts separate entries of the source, which are not always exact repeats. Equal values may be shown once.
Test system: men with previous testicular cancer and hemi-orchiectomy and/or testicular radiation
Assay: Injection of 5000 IU hCG in 10 hemi-orchiectomized men
Format: in vivo, human
Method: 11 healthy men and 10 men with previous testicular cancer and hemi-orchiectomy and/or testicular radiation were invited to participate in a prospective clinical trial, receiving 5000 IU hCG (Pregnyl) intramuscularly. They were followed longitudinally with blood- and urine sampling at baseline and 2, 8, 24, 72 and 120 hours after injection. All samples were drawn while fasting except after 8 hours. Sampling and subsequent injection at baseline and sampling at 24, 72, and 120 hours were done between 8.00 am and 9.30 am. Electro-cardiogram (ECG) was monitored at baseline and after 8 and 24 hours and QTc interval was calculated using Bazett's formula. Age, BMI and reproductive hormones on the 11 healthy men have previously been published in a baseline table. The inventors also investigated one person with an inactivating mutation in their Calcium Sensing Receptor […] heterozygote, resulting in Familial Hypocalciuric Hypercalcemia (FHH) who was evaluated in our andrological clinic fasting blood- and urine samples which were collected at baseline, 2, 24 and 72 hours after injection of 5000 IU hCG. […] Serum FSH and LH levels were also measured with Delfia, CV<5% for both. […] CTX1 (CV 8%) and P1NP (CV 8%) were both measured on IDSi10. Serum and urinal total calcium (CV 2.5%), creatinine (CV 5%), and phosphate (CV 6%), and serum calcitonin (CV 7%) and serum PTH (CV<4%) were all measured using Cobas 8000 while serum ionized calcium (CV 3%) was measured on ABL 837. Longitudinal assessment of blood- and urine samples (delta values) were calculated as fold change relative to baseline for each person with all samples' initial value starting at one. All analyses were analyzed with ANOVA with control/baseline as reference value. Every p-value presented was adjusted for multiple comparisons with Dunnett's post hoc test. However, evaluation of changes in QTc interval on ECGs was available only at two time points and therefore statistically analyzed using paired T-test. 10 hemi-orchiectomized men were injected with 5000 IU hCG.

[1] = individual men with elevated LH
[2] = individual men with normal or low LH

hCG: human chorionic gonadotropin (Pregnyl), LHCGR agonist with longer serum half-life than LH
serum ionized calcium and total calcium (4 hypogonadotropic men): non-significant trend towards increasing | PTH (4 hypogonadotropic men, throughout the study period (8-120 hours)): significant persistent suppression | calciotropic effect (6 men with compensatory elevated LH): mimicked that of the healthy men | Δ at 8 hours Ionized Calcium [1]: ↑ and ↓ (5×) | Δ at 8 hours PTH [1]: ↑ | Δ at 8 hours Ionized Calcium [2]: ↑ | Δ at 8 hours PTH [2]: ↓

Source: patent US20260183363A1, “INHIBITION OF LUTEINIZING HORMONE (LH) ACTION AS TREATMENT OF PERIMENOPAUSAL AND POSTMENOPAUSAL SYMPTOMS AND COMPLICATIONS” (RIGSHOSPITALET, priority 2022, published 2026)
